Test results published in article PMC7612365 (Cancer Discovery, 2021).

System: ACVR1^R206H HSJD-DIPG-007 cells
Assay: Western blot of signalling in HSJD-DIPG-007 cells
Type: cell-based, human

Compound	inhibition of phosphorylated SMAD1/5/8	ID1 expression (single agent)
COc1cc2c(Nc3ccc(Br)cc3F)ncnc2cc1OCC1CCN(C)CC1 [vandetanib]	concentration-dependent inhibition	–
CO[C@H]1C[C@@H]2CC[C@@H](C)[C@@](O)(O2)C(=O)C(=O)N2CCCC[C@H]2C(=O)O[C@H]([C@H](C)C[C@@H]2CC[C@@H](OCCO)[C@H](OC)C2)CC(=O)[C@H](C)/C=C(\C)[C@@H](O)[C@@H](OC)C(=O)[C@H](C)C[C@H](C)/C=C/C=C/C=C/1C [everolimus]	not observed	reduction
